From US8106099B2, “Combination of phenylcarboxamides with blockers of the IKr channel and their use for the treatment of atrial arrhythmias” (Sanofi-Aventis Deutschland GmbH, priority 2003, dated 2012)

The chains behind the UniProt entries cited, without tags or fusion partners.
UniProt P22460, whole entry: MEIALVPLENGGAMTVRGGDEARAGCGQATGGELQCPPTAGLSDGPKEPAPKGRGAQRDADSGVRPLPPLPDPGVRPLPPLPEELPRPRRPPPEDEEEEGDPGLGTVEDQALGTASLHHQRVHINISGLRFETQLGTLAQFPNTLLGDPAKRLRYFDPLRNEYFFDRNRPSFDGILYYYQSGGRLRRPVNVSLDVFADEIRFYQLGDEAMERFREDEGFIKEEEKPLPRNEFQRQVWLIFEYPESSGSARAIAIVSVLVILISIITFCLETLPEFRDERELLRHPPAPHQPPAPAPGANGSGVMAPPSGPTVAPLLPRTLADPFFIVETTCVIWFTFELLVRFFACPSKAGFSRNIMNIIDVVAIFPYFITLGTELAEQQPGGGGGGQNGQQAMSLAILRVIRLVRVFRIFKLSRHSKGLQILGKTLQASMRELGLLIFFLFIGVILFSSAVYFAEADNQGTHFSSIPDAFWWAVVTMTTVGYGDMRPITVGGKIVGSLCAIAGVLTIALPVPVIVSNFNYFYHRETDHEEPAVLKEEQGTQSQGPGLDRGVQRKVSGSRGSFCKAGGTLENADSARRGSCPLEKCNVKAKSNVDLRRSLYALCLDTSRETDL

Key:
[1] = target: Kv1.5 channels from humans (Homo sapiens, UniProt P22460); test: cell-based
Protocol: Kv1.5 channels from humans were expressed in Xenopus oocytes. […] RNA encoding Kv1.5 synthesized in vitro was then injected into these oocytes. […] The Kv1.5 channels were in this case as a rule activated using voltage jumps to 0 mV and 40 mV lasting 500 ms. […] These experiments were carried out at room temperature.

[2] = test system: goats in persistent atrial fibrillation; test: Efficiency of cardioversion in up to eight goats with persistent atrial fibrillation; type: in vivo; details: monotherapy, +ibutilide 2 mg/kg or +dofetilide 10 μg/kg

Structure (SMILES)	IC50 [1]	Efficiency of cardioversion ([2]; example 1 0.1 mg/kg)	ratio of goats where cardioversion occurred to goats used ([2]; example 1 0.1 mg/kg)	Efficiency of cardioversion ([2]; example 1 0.3 mg/kg)	ratio of goats where cardioversion occurred to goats used ([2]; example 1 0.3 mg/kg)	Efficiency of cardioversion ([2]; example 1 1 mg/kg)	ratio of goats where cardioversion occurred to goats used ([2]; example 1 1 mg/kg)	Efficiency of cardioversion ([2]; example 1 3 mg/kg)	ratio of goats where cardioversion occurred to goats used ([2]; example 1 3 mg/kg, listed as Compound of example 1)	ratio of goats where cardioversion occurred to goats used ([2]; example 1 3 mg/kg, listed as compound of example 1)	Efficiency of cardioversion ([2]; example 1 10 mg/kg)	ratio of goats where cardioversion occurred to goats used ([2]; example 1 10 mg/kg)
CC[C@H](NC(=O)c1cc(F)ccc1NS(=O)(=O)c1cccc2cccnc12)c1ccccc1 [Example 7, (S)-5-Fluoro-2-(quinoline-8-sulfonylamino)-N-(1-phenyl-propyl)benzamide]	1100 nM	–	–	–	–	–	–	–	–	–	–	–
COc1ccc(CC(=O)NCc2ccccc2-c2ccccc2C(=O)NCCc2cccnc2)cc1 [Example 1, 2′-{[2-(4-Methoxyphenyl)acetylamino]methyl}biphenyl-2-carboxylic acid (2-pyridin-3-ylethyl)amide]	–	17%	(1/6)	17%	(1/6)	13%	(1/8)	38%	(3/8)	3 of 8	63%	(5/8)
CCCCS(=O)(=O)Nc1ccc(C)cc1C(=O)NC(c1cccnc1)C1CC1 (stereo not shown) [Example 6, 2-(Butyl-1-sulfonylamino)-N-(cyclopropylpyridin-3-ylmethyl)-5-methylbenzamide]	1000 nM	–	–	–	–	–	–	–	–	–	–	–
